Source: publication PMC2605181 (Nature chemical biology, 2008)

Tested on: brain levels of 2-AG, arachidonic acid, NAEs, MAGs
Experiment: Measurement of brain lipids in treated mice
Format: in vivo, mouse

## O=C(Oc1ccc([N+](=O)[O-])cc1)N1CCC(C(O)(c2ccc3c(c2)OCO3)c2ccc3c(c2)OCO3)CC1 [JZL184]
16 mg kg^-1 i.p., 0.5-24 h
  brain NAEs including anandamide, other MAGs and free fatty acids, time course: unchanged
  brain arachidonic acid, time course: rapid and sustained decrease
16 mg kg^-1 i.p., 24 h
  brain 2-AG levels at 24 h: returned to near-control levels; also recorded: returned to baseline
4-40 mg kg^-1 i.p., 4 h
  brain arachidonic acid levels: significant reductions
  brain levels of other MAGs (PG, OG) and palmitic and oleic acid: not significantly altered
All doses tested (4-40 mg kg^-1 i.p.), 4 h
  brain anandamide (AEA) levels: without altering anandamide; also recorded: unaffected
Doses below 40 mg kg^-1 i.p., 4 h
  brain PEA and OEA levels: did not change

“Also recorded” adds a separate entry of the source.
